From PubChem BioAssay AID651821 (The Scripps Research Institute Molecular Screening Center, 2012)
Only a part is listed here, and it is no random draw. The source made the active and inactive calls.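 How the source made its calls: active means inhibition above the plate cutoff, the mean of all test compounds on that plate plus 3 SD (cut at about 35% in these data); inactive means the rest.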

Experiment: binders of r(CAG) RNA repeats, primary screen, biochemical, fluorescence (AID 651821);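 further: 0% = DMSO alone and 100% = 100 µM mitoxantrone as full dye displacement; higher means more dye released from RNA so lower well fluorescence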
Details: r(CAG) RNA repeat, TO-PRO-1 dye displacement fluorescence; at 3 µM; active compounds read high

Row | SMILES | inhibition
1 | Cc1cccc(OCC(=O)OC2CN3CCC2CC3)c1 (stereo unspecified) | inactive: -1.58%
2 | O=[N+]([O-])c1cc(Oc2ccc([N+](=O)[O-])cc2C(F)(F)F)cc([N+](=O)[O-])c1 | inactive: 0.35%
3 | COc1ccc(N/C(=N/P(=O)(N2CCOCC2)N2CCOCC2)N2CCOCC2)cc1 | inactive: -5.17%
4 | Cc1c2c(nc3ccccc13)SC(C(Cl)Cl)C2 (stereo unspecified) | inactive: 1.52%
5 | O=C(OC1CN2CCC1CC2)C12CC3CC(CC(C3)C1)C2 (stereo unspecified) | inactive: 0.7%
6 | Cc1cc(=O)[nH]c(N[N+](=O)[O-])n1 | inactive: -0.97%
7 | O=P1(N(CCCl)CCCl)Nc2ccccc2N1 | inactive: 2.98%
8 | O=P1(N(CCCl)CCCl)OCCCN1CCCl (stereo unspecified) | inactive: 2.19%
9 | COc1ccc2nc(NP(=O)(c3ccccc3)c3ccccc3)sc2c1 | inactive: -3.11%
10 | COc1cc(I)ccc1[As](=O)(O)O | inactive: 0.61%
11 | ClCCSc1nnc(-c2cccnc2)o1 | inactive: -1.32%
12 | CC(C)c1ccc(OP(=O)(Nc2ccccn2)Oc2ccccc2F)cc1 (stereo unspecified) | inactive: -3.01%
13 | COC(=O)C1(C)COP(=O)(N2CCCCCC2)OC1 (stereo unspecified) | inactive: 1.27%
14 | O=C(OC1CN2CCC1CC2)c1cccc2[nH]cnc12 (stereo unspecified) | inactive: -6.53%
15 | CCN(CC)C(=S)SC(NC=O)C(Cl)(Cl)Cl (stereo unspecified) | inactive: 2.28%
16 | CC(C)NC(=O)NP(=O)(Oc1ccccc1)Oc1ccccc1 | inactive: -3.3%
17 | O=[As](O)(c1ccc(O)cc1)c1ccccc1O | inactive: 4.84%
18 | C[As](=O)(O)c1cccc(C(=O)O)c1 | inactive: -1.17%
19 | COc1cc(C(=O)NCC2(N3CCOCC3)CCCCC2)ccc1OCC(C)C | inactive: -5.58%
20 | O=[N+]([O-])c1ccc(-c2cc([N+](=O)[O-])c(O)c([N+](=O)[O-])c2)cc1 | inactive: 7.12%
21 | Cc1ccc(OP(=O)(Nc2ccc([N+](=O)[O-])cn2)Oc2ccc(C)cc2)cc1 | inactive: 3.84%

Row | SMILES | inhibition
22 | [N-]=[N+]=NC1CCCCC1NC(=O)c1cc([N+](=O)[O-])cc([N+](=O)[O-])c1 (stereo unspecified) | inactive: 3.13%
23 | Cc1ccc2nc3c(c(C)c2c1)CC(C(Cl)Cl)S3 (stereo unspecified) | inactive: 7.34%
24 | CCOC(=O)Nc1cccc([As](=O)(O)O)c1 | inactive: 0.24%
25 | Cc1cc(SC(NC=O)C(Cl)(Cl)Cl)ncn1 (stereo unspecified) | inactive: -1.67%
26 | O=P(Nc1ccccn1)(c1cccc2ccccc12)c1cccc2ccccc12 | inactive: -2.71%
27 | O=[N+]([O-])c1ccc(Nc2ccc(Oc3ccc([N+](=O)[O-])cc3[N+](=O)[O-])cc2)c([N+](=O)[O-])c1 | inactive: 3.63%
28 | O=C(O)C(O)c1ccc(N(CCCl)CCCl)cc1 (stereo unspecified) | inactive: 5.26%
29 | CCOC(=O)Nc1ccc([As](=O)(O)O)c(O)c1 | inactive: 1.7%
30 | CC1CCNP(=O)(N(CCCl)CCCl)O1 (stereo unspecified) | inactive: -0.78%
31 | COP(=O)(OC)N1CC1c1ccccc1 (stereo unspecified) | inactive: 2.86%
32 | CCCCOc1ccc(C(=O)NCC2(N3CCCCC3)CCCCC2)cc1OC | inactive: -5.86%
33 | Cc1cc(SC(NC(=O)c2ccccc2)C(Cl)(Cl)Cl)nc(C(C)C)n1 (stereo unspecified) | inactive: 3.06%
34 | O=C(OC1CN2CCC1CC2)c1cccc([N+](=O)[O-])c1 (stereo unspecified) | inactive: -1.69%
35 | CCOC(=O)c1ccc(NC(=O)C(C)(CCl)SC)cc1 (stereo unspecified) | inactive: 1.24%
36 | CCC(C)N(CC(C)C)C(=S)SC(NC(C)=O)C(Cl)(Cl)Cl (stereo unspecified) | inactive: -3.96%
37 | COP1(=S)c2c(C)nn(CCC#N)c2N=C(c2ccc(F)cc2)N1C (stereo unspecified) | inactive: -4.48%
38 | COC(=O)C1(C)COP(=O)(N2CCCC2)OC1 (stereo unspecified) | inactive: 2.32%
39 | O=C(O)C(=O)c1ccc(N(CCCl)CCCl)cc1 | inactive: 6.53%
40 | O=C(COc1ccccc1)OC1CN2CCC1CC2 (stereo unspecified) | inactive: 2.23%
41 | O=C(Nc1ccncc1[N+](=O)[O-])c1ccc([N+](=O)[O-])cc1[N+](=O)[O-] | inactive: 4.36%
